Values of other authors in patent US9539301B2, “Melanotropin ligands for skin care” (THE ARIZONA BOARD OF REGENTS ON BEHALF OF THE UNIVERSITY OF …, priority 2011, dated 2017).

Protein sequences, listed by entry. Tags and fused reporters are not part of them.
UniProt P32245, whole entry: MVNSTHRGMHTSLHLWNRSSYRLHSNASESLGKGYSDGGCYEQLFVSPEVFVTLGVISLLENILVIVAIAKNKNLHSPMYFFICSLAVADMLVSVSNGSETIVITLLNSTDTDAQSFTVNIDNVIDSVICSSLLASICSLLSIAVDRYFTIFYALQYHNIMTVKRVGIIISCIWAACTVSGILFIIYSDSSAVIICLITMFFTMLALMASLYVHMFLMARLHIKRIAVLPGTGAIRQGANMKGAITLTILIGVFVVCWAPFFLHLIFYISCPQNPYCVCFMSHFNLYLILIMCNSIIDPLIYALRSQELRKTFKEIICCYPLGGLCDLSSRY

Biological target: MC4R (Homo sapiens, UniProt P32245)
Conditions: read-out: Ki MC4R (values derived from literature); cited from earlier work

In the case of NC(=O)[C@H](Cc1c[nH]c2ccccc12)NC(=O)[C@H](CCCN=C(N)N)NC(=O)[C@@H](Cc1ccccc1)NC(=O)[C@H](Cc1cnc[nH]1)NC(=O)CCCc1ccccc1 [Compound 1, 4-phenylbutyryl-His-DPhe-Arg-Trp-NH2], the Ki is given as 7.3 nM.
